Results on three molecules are retold here after patent US20220313698A1, “MODULATORS OF CYSTIC FIBROSIS TRANSMEMBRANE CONDUCTANCE REGULATOR” (Vertex Pharmaceuticals Incorporated, priority 2019, published 2022).

Chains of the proteins cited; added tags and fusions are not shown.
UniProt P13569, whole entry: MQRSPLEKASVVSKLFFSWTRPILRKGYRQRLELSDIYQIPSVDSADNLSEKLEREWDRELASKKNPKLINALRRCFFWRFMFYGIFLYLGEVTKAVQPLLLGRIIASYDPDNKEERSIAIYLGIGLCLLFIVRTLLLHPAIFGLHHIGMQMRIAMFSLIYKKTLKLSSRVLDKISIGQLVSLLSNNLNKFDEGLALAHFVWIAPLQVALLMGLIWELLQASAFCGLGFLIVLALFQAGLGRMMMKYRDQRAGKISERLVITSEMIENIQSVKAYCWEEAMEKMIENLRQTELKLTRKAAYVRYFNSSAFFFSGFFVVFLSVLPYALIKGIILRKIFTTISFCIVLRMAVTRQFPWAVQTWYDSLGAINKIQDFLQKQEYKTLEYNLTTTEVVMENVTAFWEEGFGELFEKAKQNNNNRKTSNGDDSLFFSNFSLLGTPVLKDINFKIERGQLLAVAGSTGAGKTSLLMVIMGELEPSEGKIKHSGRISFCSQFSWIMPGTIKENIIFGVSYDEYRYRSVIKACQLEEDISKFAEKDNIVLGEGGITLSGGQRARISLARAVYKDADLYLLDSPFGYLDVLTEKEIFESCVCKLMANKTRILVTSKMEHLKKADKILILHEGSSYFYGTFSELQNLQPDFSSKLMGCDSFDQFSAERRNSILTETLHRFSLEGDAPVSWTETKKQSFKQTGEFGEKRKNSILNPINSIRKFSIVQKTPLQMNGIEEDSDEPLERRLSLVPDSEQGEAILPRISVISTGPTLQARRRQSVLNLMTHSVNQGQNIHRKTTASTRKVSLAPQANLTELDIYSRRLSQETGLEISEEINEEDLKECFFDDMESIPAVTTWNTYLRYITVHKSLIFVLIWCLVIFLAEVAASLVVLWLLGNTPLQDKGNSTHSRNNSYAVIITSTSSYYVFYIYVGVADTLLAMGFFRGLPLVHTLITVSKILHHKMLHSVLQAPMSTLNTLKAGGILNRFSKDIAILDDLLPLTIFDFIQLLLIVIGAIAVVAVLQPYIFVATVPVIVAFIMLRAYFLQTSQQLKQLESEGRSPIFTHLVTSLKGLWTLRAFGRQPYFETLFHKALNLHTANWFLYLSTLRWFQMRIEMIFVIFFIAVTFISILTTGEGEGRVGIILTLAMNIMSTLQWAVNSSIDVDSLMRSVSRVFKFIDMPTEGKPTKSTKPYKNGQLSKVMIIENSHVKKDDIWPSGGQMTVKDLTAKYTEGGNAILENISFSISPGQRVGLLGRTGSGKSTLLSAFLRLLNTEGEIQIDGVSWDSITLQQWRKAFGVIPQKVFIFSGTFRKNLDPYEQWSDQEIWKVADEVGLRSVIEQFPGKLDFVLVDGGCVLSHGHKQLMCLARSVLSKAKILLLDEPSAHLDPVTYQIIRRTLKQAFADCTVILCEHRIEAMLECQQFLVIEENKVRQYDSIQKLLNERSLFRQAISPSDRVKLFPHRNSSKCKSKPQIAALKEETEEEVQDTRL

In general, EC50 refers to the concentration at which the effect is half-maximal.

For the assay, the target named is CFTR-mediated chloride transport (Homo sapiens, UniProt P13569). Description: Corrector Assay A - membrane potential dye assay (enteroid cells). The settings on record: for Corrector Assay A % activity: % of chloride transport of triple combination control (1 μM (14S)-dispiro macrocycle + 3 μM tezacaftor + 300 nM ivacaftor); for EC50: read-out: Corrector Assay A EC50, human intestinal enteroid cells, 18-24 h incubation, acute 10 μM forskolin + 300 nM ivacaftor.

As for `CC1(C)C[C@@H]2CC[C@@H](c3ccccn3)Nc3cccc(n3)S(=O)(=O)NC(=O)c3ccc(C4CC4)nc3N1C2`, the “Corrector Assay A % activity” value is recorded as “+++ (+++ is >60%)” and the EC50 was less than 1000 nM.
As to `CC1(C)C[C@@H]2CC[C@H](c3ccccn3)Nc3cccc(n3)S(=O)(=O)NC(=O)c3ccc(-n4ccc(OCCC(F)(F)F)n4)nc3N1C2`, the “Corrector Assay A % activity” value was “+++ (+++ is >60%)” and the EC50 was less than 1000 nM.
With `CC(C)(C)CCOc1ccn(-c2ccc3c(n2)N2C[C@@H](CC[C@@H](c4ccccn4)Nc4cccc(n4)S(=O)(=O)NC3=O)CC2(C)C)n1`, the “Corrector Assay A % activity” value is given as “++ (++ is 30-60%)” and the EC50 was less than 1000 nM.
